This note sets out measurements from BindingDB's records for doi:10.1021/jm00101a032 (Pfizer, 1992).

The nature of this test: Effect on forskolin stimulated adenylate cyclase activity at 5-hydroxytryptamine 1A receptor of guinea pig hippocampus.

Broadly, the IC50 is the concentration at which inhibition is half-maximal. `COc1ccc2[nH]cc(CCN(C)C)c2c1` [3-(2-DIMETHYLAMINOETHYL)-5-METHOXYINDOLE]: the IC50 is 0.015 µM.
